In PubChem BioAssay (NCI):
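48-hour exposure; five concentrations; linearly interpolated endpoints. The concentration for 50% growth inhibition is given as GI50. TGI: total growth inhibition.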

Columns and labels:
Assay in all cases: growth of human tumour cells (NCI), 48 h
786-0 renal = tested on: 786-0 renal
A498 renal = tested on: A498 renal
A549 NSCLC = tested on: A549 NSCLC
ACHN renal = tested on: ACHN renal
CAKI-1 renal = tested on: CAKI-1 renal
CCRF-CEM leukemia = tested on: CCRF-CEM leukemia
COLO 205 colon = tested on: COLO 205 colon
DLD-1 colon = tested on: DLD-1 colon
DMS 114 small cell lung = tested on: DMS 114 small cell lung
DMS 273 small cell lung = tested on: DMS 273 small cell lung
EKVX NSCLC = tested on: EKVX NSCLC
HCT-15 colon = tested on: HCT-15 colon
HOP-62 NSCLC = tested on: HOP-62 NSCLC
HOP-92 NSCLC = tested on: HOP-92 NSCLC
IGROV1 ovarian = tested on: IGROV1 ovarian
K-562 leukemia = tested on: K-562 leukemia
KM12 colon = tested on: KM12 colon
KM20L2 colon = tested on: KM20L2 colon
LOX IMVI melanoma = tested on: LOX IMVI melanoma
LXFL 529 NSCLC = tested on: LXFL 529 NSCLC
M14 melanoma = tested on: M14 melanoma
M19-MEL melanoma = tested on: M19-MEL melanoma
MALME-3M melanoma = tested on: MALME-3M melanoma
MOLT-4 leukemia = tested on: MOLT-4 leukemia
NCI-H226 lung = tested on: NCI-H226 lung
NCI-H23 lung = tested on: NCI-H23 lung
NCI-H322M lung = tested on: NCI-H322M lung
NCI-H460 lung = tested on: NCI-H460 lung
NCI-H522 lung = tested on: NCI-H522 lung
OVCAR-3 ovarian = tested on: OVCAR-3 ovarian
OVCAR-4 ovarian = tested on: OVCAR-4 ovarian
OVCAR-8 ovarian = tested on: OVCAR-8 ovarian
RPMI-8226 leukemia = tested on: RPMI-8226 leukemia
RXF 393 renal = tested on: RXF 393 renal
RXF-631 renal = tested on: RXF-631 renal
SF-268 CNS = tested on: SF-268 CNS
SF-295 CNS = tested on: SF-295 CNS
SF-539 CNS = tested on: SF-539 CNS
SK-MEL-2 melanoma = tested on: SK-MEL-2 melanoma
SK-MEL-28 melanoma = tested on: SK-MEL-28 melanoma
SK-MEL-5 melanoma = tested on: SK-MEL-5 melanoma
SK-OV-3 ovarian = tested on: SK-OV-3 ovarian
SN12C renal = tested on: SN12C renal
SNB-19 CNS = tested on: SNB-19 CNS
SNB-75 CNS = tested on: SNB-75 CNS
SNB-78 CNS = tested on: SNB-78 CNS
SR leukemia = tested on: SR leukemia
SW-620 colon = tested on: SW-620 colon
TK-10 renal = tested on: TK-10 renal
U251 CNS = tested on: U251 CNS
UACC-257 melanoma = tested on: UACC-257 melanoma
UACC-62 melanoma = tested on: UACC-62 melanoma
UO-31 renal = tested on: UO-31 renal
XF 498 CNS = tested on: XF 498 CNS

Q: `O=[N+]([O-])c1ccc(N=Nc2c(O)[nH]c3ccc([N+](=O)[O-])cc23)c([N+](=O)[O-])c1` was tested. Which GI50 (786-0 renal) did it give?
A: 17.7 µM

Q: What about the TGI (786-0 renal) of the same compound?
A: 32.3 µM

Q: And the GI50 (A498 renal)?
A: 14 µM

Q: What about the TGI (A498 renal) of the same compound?
A: 36.4 µM

Q: And the GI50 (A549 NSCLC)?
A: 18.7 µM

Q: What about the TGI (A549 NSCLC) of the same compound?
A: 36.5 µM

Q: And the GI50 (ACHN renal)?
A: 28 µM

Q: And the TGI (ACHN renal)?
A: 79.1 µM

Q: And the GI50 (CAKI-1 renal)?
A: 27.3 µM

Q: What about the TGI (CAKI-1 renal) of the same compound?
A: > 100 µM

Q: What about the GI50 (CCRF-CEM leukemia) of the same compound?
A: 25.5 µM

Q: And the TGI (CCRF-CEM leukemia)?
A: 78.9 µM

Q: And the GI50 (COLO 205 colon)?
A: 23.2 µM

Q: And the TGI (COLO 205 colon)?
A: 65 µM

Q: And the GI50 (DLD-1 colon)?
A: 39.2 µM

Q: And the TGI (DLD-1 colon)?
A: > 100 µM

Q: And the GI50 (DMS 114 small cell lung)?
A: 29 µM

Q: And the TGI (DMS 114 small cell lung)?
A: 75.5 µM

Q: And the GI50 (DMS 273 small cell lung)?
A: 18.1 µM

Q: What about the TGI (DMS 273 small cell lung) of the same compound?
A: 37.1 µM

Q: What about the GI50 (EKVX NSCLC) of the same compound?
A: 37.6 µM

Q: And the TGI (EKVX NSCLC)?
A: > 100 µM

Q: And the GI50 (HCT-15 colon)?
A: 23.7 µM

Q: And the TGI (HCT-15 colon)?
A: 57.7 µM

Q: What about the GI50 (HOP-62 NSCLC) of the same compound?
A: 18.2 µM

Q: And the TGI (HOP-62 NSCLC)?
A: 33.8 µM

Q: And the GI50 (HOP-92 NSCLC)?
A: 19.3 µM

Q: What about the TGI (HOP-92 NSCLC) of the same compound?
A: 36.6 µM

Q: And the GI50 (IGROV1 ovarian)?
A: 51.7 µM

Q: What about the TGI (IGROV1 ovarian) of the same compound?
A: > 100 µM

Q: What about the GI50 (K-562 leukemia) of the same compound?
A: 36.1 µM

Q: And the TGI (K-562 leukemia)?
A: > 100 µM

Q: And the GI50 (KM12 colon)?
A: 27.8 µM

Q: And the TGI (KM12 colon)?
A: 69.1 µM

Q: What about the GI50 (KM20L2 colon) of the same compound?
A: 24.2 µM

Q: And the TGI (KM20L2 colon)?
A: 66 µM

Q: And the GI50 (LOX IMVI melanoma)?
A: 28.1 µM

Q: And the TGI (LOX IMVI melanoma)?
A: 68.4 µM

Q: What about the GI50 (LXFL 529 NSCLC) of the same compound?
A: 37.4 µM

Q: And the TGI (LXFL 529 NSCLC)?
A: > 100 µM

Q: What about the GI50 (M14 melanoma) of the same compound?
A: 23.4 µM

Q: What about the TGI (M14 melanoma) of the same compound?
A: 52.3 µM

Q: What about the GI50 (M19-MEL melanoma) of the same compound?
A: 28.8 µM

Q: And the TGI (M19-MEL melanoma)?
A: 87.5 µM

Q: And the GI50 (MALME-3M melanoma)?
A: 17.8 µM

Q: And the TGI (MALME-3M melanoma)?
A: 34.9 µM

Q: What about the GI50 (MOLT-4 leukemia) of the same compound?
A: 31.7 µM

Q: What about the TGI (MOLT-4 leukemia) of the same compound?
A: > 100 µM

Q: And the GI50 (NCI-H226 lung)?
A: 23.5 µM

Q: What about the TGI (NCI-H226 lung) of the same compound?
A: 64.8 µM

Q: And the GI50 (NCI-H23 lung)?
A: 26 µM

Q: What about the TGI (NCI-H23 lung) of the same compound?
A: 65.4 µM

Q: What about the GI50 (NCI-H322M lung) of the same compound?
A: 20.6 µM

Q: And the TGI (NCI-H322M lung)?
A: 47.9 µM

Q: What about the GI50 (NCI-H460 lung) of the same compound?
A: 20.7 µM

Q: And the TGI (NCI-H460 lung)?
A: 42.5 µM

Q: What about the GI50 (NCI-H522 lung) of the same compound?
A: 20.3 µM

Q: And the TGI (NCI-H522 lung)?
A: 41.2 µM

Q: And the GI50 (OVCAR-3 ovarian)?
A: 18 µM

Q: And the TGI (OVCAR-3 ovarian)?
A: 34.2 µM

Q: And the GI50 (OVCAR-4 ovarian)?
A: 17.9 µM

Q: What about the TGI (OVCAR-4 ovarian) of the same compound?
A: 33.5 µM

Q: And the GI50 (OVCAR-8 ovarian)?
A: 19.9 µM

Q: What about the TGI (OVCAR-8 ovarian) of the same compound?
A: 40.4 µM

Q: And the GI50 (RPMI-8226 leukemia)?
A: 24.6 µM

Q: And the TGI (RPMI-8226 leukemia)?
A: 57 µM

Q: And the GI50 (RXF 393 renal)?
A: 19.4 µM

Q: What about the TGI (RXF 393 renal) of the same compound?
A: 38.3 µM

Q: And the GI50 (RXF-631 renal)?
A: 20.6 µM

Q: What about the TGI (RXF-631 renal) of the same compound?
A: 41.7 µM

Q: What about the GI50 (SF-268 CNS) of the same compound?
A: 36 µM

Q: What about the TGI (SF-268 CNS) of the same compound?
A: > 100 µM

Q: And the GI50 (SF-295 CNS)?
A: 17.7 µM

Q: And the TGI (SF-295 CNS)?
A: 35 µM

Q: What about the GI50 (SF-539 CNS) of the same compound?
A: 21.8 µM

Q: And the TGI (SF-539 CNS)?
A: 49.2 µM

Q: What about the GI50 (SK-MEL-2 melanoma) of the same compound?
A: 46.4 µM

Q: And the TGI (SK-MEL-2 melanoma)?
A: > 100 µM

Q: And the GI50 (SK-MEL-28 melanoma)?
A: 22.1 µM

Q: And the TGI (SK-MEL-28 melanoma)?
A: 63.5 µM

Q: And the GI50 (SK-MEL-5 melanoma)?
A: 19.5 µM

Q: What about the TGI (SK-MEL-5 melanoma) of the same compound?
A: 40.4 µM

Q: And the GI50 (SK-OV-3 ovarian)?
A: 34 µM

Q: What about the TGI (SK-OV-3 ovarian) of the same compound?
A: > 100 µM

Q: What about the GI50 (SN12C renal) of the same compound?
A: 33 µM

Q: And the TGI (SN12C renal)?
A: > 100 µM

Q: And the GI50 (SNB-19 CNS)?
A: 20.2 µM

Q: And the TGI (SNB-19 CNS)?
A: 39.8 µM

Q: What about the GI50 (SNB-75 CNS) of the same compound?
A: 44.5 µM

Q: And the TGI (SNB-75 CNS)?
A: > 100 µM

Q: And the GI50 (SNB-78 CNS)?
A: 31.3 µM

Q: And the TGI (SNB-78 CNS)?
A: 97.1 µM

Q: And the GI50 (SR leukemia)?
A: 28.4 µM

Q: What about the TGI (SR leukemia) of the same compound?
A: 71.8 µM

Q: What about the GI50 (SW-620 colon) of the same compound?
A: 21.7 µM

Q: And the TGI (SW-620 colon)?
A: 47.4 µM

Q: What about the GI50 (TK-10 renal) of the same compound?
A: 17.8 µM

Q: And the TGI (TK-10 renal)?
A: 33.6 µM

Q: And the GI50 (U251 CNS)?
A: 11.9 µM

Q: And the TGI (U251 CNS)?
A: 25.8 µM

Q: What about the GI50 (UACC-257 melanoma) of the same compound?
A: 26.1 µM

Q: And the TGI (UACC-257 melanoma)?
A: 84.1 µM

Q: What about the GI50 (UACC-62 melanoma) of the same compound?
A: 32.6 µM

Q: And the TGI (UACC-62 melanoma)?
A: > 100 µM

Q: And the GI50 (UO-31 renal)?
A: 44.4 µM

Q: And the TGI (UO-31 renal)?
A: > 100 µM

Q: What about the GI50 (XF 498 CNS) of the same compound?
A: 18.9 µM

Q: What about the TGI (XF 498 CNS) of the same compound?
A: 35.6 µM
